The values below come from paper PMC7640899.

Assay [1] has as its target unmethylated mononucleosome (wild-type H3, human histones, 147 bp Widom 601 DNA) (human) (UniProt Q71DI3). The experiment in a line: MST.
Assay [2] deals with H3(1–21)K4me2 peptide (human) (UniProt Q71DI3).
For assay [3], the target named is full-length dimethylated histone H3K4me2 (human) (UniProt Q71DI3).

As usually defined, the Kd is a measure of binding affinity in units of concentration. A low value points to tighter binding. Turning to “full-length lysine specific demethylase 1 (LSD1) (from UniProt O60341 1-852) (enzyme)”, in assay [1], the Kd came out at 6.1 µM. Also, the results for the KM of demethylation, continuous horseradish peroxidase-coupled assay in assay [2] and in assay [3] were 15.1 µM and 3.2 µM, respectively.
